Values quoted from earlier work, collected in article PMC6687308 (Journal of natural products, 2017).
pIC50: −log10 of the molar value.

System: TRPM2
Settings: read-out: IC50 on TRPM2-transfected HEK cells; cited from earlier work

In the case of `NCCOB(c1ccccc1)c1ccccc1` [2-APB, 2-aminoethyl diphenylborinate], the pIC50 is listed as 6.00.
